# “And” between values parts separate entries of the source, which are not always exact repeats. Equal entries are not always repeated. The list shows a part of the results, in another mix than the full data. Results filed as inconclusive are left out. The source made the active and inactive calls. Calls follow the shape of the dose curve; as a rule, active = well fitted cell-killing curve with a large enough effect in the repeat runs; inconclusive = weak or mixed curves, or effect the other way; inactive = no such curve, though single readings can be large or run the other way.
# Experiment: qHTS assay to identify small molecule antagonists of the retinoid-related orphan receptor gamma (ROR-gamma) signaling pathway - cell viability counter screen (AID 1159520); also: nearly all actives have a fitted effect of over 50% in size
# Details: Tet-on RORgamma CHO cells viability, ATP luminescence, 16 h; at 42.5 µM (top of the series)
# Text: U.S. Tox21 Program National Center for Advancing Translational Sciences [NCATS] NIH Chemical Genomics Center [NCGC] U.S. Environmental Protection Agency [EPA] National Institutes of Environmental Health Sciences [NIEHS] National Toxicology Program [NTP] U.S. Food and Drug Administration [FDA] Tox21 Assay Overview: Nuclear steroid hormone receptors are involved in many biological processes including inflammatory responses, cell proliferation, and apoptosis. Environmental factors or compounds disrupting these nuclear receptor pathways and gene expression may promote susceptibility to immunotoxicants and autoimmune diseases. One important group of these expression factors are the retinoid-related orphan receptors. To assess compounds that may interfere with the retinoid-related orphan receptor gamma (ROR-gamma) transcription factor, a cell-based luciferase assay was used. The CHO cell-based assay utilizes a TET-inducible ROR expression factor and ROR response element-LUC reporter gene. Reporter gene activity was induced using Doxycycline Hyclate and measured after 16 hr incubation. Tet-on ROR gamma CHO cells were used to screen against the Tox21 10K compound library for cytotoxicity by measuring the viability of the cells based on the quantitation of the ATP.
# Tox21 Assay Protocol Summary: Tet-on ROR gamma CHO cells were dispensed at 1,000 cells in 4 uL of culture medium per well into white wall/solid bottom 1536-well plates using a Multidrop Combi (Thermo Scientific, Waltham, MA) dispenser. Following incubation at 37 C and 5% CO2 for 4 hr, 23 nL of compounds dissolved in DMSO, positive controls or DMSO only were transferred by a Pintool station (Kalypsys, San Diego, CA) and after 2 hr incubation at 37 C, one ul of 1 uM (final concentration) of Doxycycline Hyclate was added to all the wells by using a Flying Reagent Dispenser (FRD) (Aurora Discovery, San Diego, CA). After 16 hr incubation at 37 C and 5% CO2, 5 uL of CellTiter-Glo reagent (Promega Corporation, Madison, WI) was added to each assay plate using FRD. After 30 min incubation at room temperature, luminescence was quantified on a ViewLux plate reader (Perkin Elmer, Waltham, MA).
# % is scaled to controls: 0 for no effect and ±100 for the full control effect.
row,Structure (SMILES),"activity, negative = cytotoxicity"
1,OCCSCCO,inactive: 6.21%

# Same assay, conditions: Tet-on RORgamma CHO cells viability, ATP luminescence, 16 h; at 92.4 µM (top of the series)
row,Structure (SMILES),"activity, negative = cytotoxicity"
1,OCCSCCO,inactive: 3.87%

# Same assay, conditions: Tet-on RORgamma CHO cells viability, ATP luminescence, 16 h; at 92.4 µM (top of the series) unless noted
row,Structure (SMILES),"activity, negative = cytotoxicity"
1,CN(C)CCCl,inactive: 1.5%
2,Cc1cccc([N+](=O)[O-])c1[N+](=O)[O-],inactive: 0.522% [at 42.5 µM]
3,O=[N+]([O-])c1cccc([N+](=O)[O-])c1,inactive: -12.3%
4,CCOP(=O)(CC)Oc1ccc([N+](=O)[O-])cc1 (stereo not drawn),inactive: -4.09% [at 42.5 µM]
5,C/C1=C2N=C(/C=C3N=C(/C(C)=C4\[N-][C@@](C)([C@@H]5N=C1[C@](C)(CCC(=O)NC[C@@H](C)OP(=O)([O-])O[C@H]1[C@@H](O)[C@@H](n6cnc7cc(C)c(C)cc76)O[C@@H]1CO)[C@H]5CC(N)=O)[C@@](C)(CC(N)=O)[C@@H]4CCC(N)=O)[C@@](C)(CC(N)=O)[C@@H]\3CCC(N)=O)C(C)(C)[C@@H]/2CCC(N)=O.[C-]#N.[Co+3],inactive: -12.3% [at 42.5 µM]
6,O=[N+]([O-])[O-].[NH4+],inactive: 0.37% and inactive: 4.57%
7,CCN(CC)CCCl,inactive: 6.7%
8,N=C(N)N[N+](=O)[O-],inactive: 0.479%
9,[NH4+].[O-][Cl+3]([O-])([O-])[O-],inactive: 3.3% and inactive: -1.27%
10,COP(C)(=O)OC,inactive: 5.38% and inactive: 2.27%
11,Cc1ccc([N+](=O)[O-])c([N+](=O)[O-])c1,inactive: -10.3% and inactive: -3.91%
12,CC(C)OP(C)(=O)OC(C)C,inactive: 0.287% and inactive: 4%
13,CP(=O)(O)OCCC[Si](O)(O)O,inactive: 8.35%
14,CC(C)N(CCO)C(C)C,inactive: 1.36%
15,Cc1c([N+](=O)[O-])cccc1[N+](=O)[O-],inactive: 3.21% and inactive: -12.5%
16,COc1ccc([N+](=O)[O-])cc1[N+](=O)[O-],inactive: 0.146%
17,N#CBr,inactive: 2.81%
18,Cc1ccc([N+](=O)[O-])cc1[N+](=O)[O-],inactive: 0.619%
19,Nc1cc([N+](=O)[O-])cc([N+](=O)[O-])c1O,inactive: -21.5%
20,O=[N+]([O-])OCC(CO[N+](=O)[O-])(CO[N+](=O)[O-])CO[N+](=O)[O-],inactive: 0.445%
21,CCOP(=O)(CC)OCC,inactive: -8.95%
